Measurements published in patent publication US6936585B2, “Corticotropin releasing factor 2 receptor agonists” (priority 2002, dated 2005).

Columns and labels:
CRF2R = target: T1, CRF2R (Homo sapiens, UniProt Q13324); assay: CRF2R agonist activation (EC50 / Emax), called comparative CRF binding; type: cell-based; settings: for Emax: read-out: CRF2R Emax
T1 sequence (Q13324 1-411): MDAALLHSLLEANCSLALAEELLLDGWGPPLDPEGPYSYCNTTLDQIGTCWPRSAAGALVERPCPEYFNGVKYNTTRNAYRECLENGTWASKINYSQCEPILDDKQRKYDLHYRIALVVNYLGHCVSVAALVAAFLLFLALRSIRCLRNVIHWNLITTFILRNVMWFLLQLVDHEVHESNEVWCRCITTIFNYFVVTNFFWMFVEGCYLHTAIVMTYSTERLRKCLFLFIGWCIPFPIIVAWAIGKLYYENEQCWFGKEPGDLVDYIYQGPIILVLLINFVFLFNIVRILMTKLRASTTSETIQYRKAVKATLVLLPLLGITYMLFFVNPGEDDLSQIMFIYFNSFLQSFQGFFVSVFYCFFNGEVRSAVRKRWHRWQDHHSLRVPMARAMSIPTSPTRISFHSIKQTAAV
How it was run: (§1)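 Agonism at each human CRF receptor subtype is inferred from increased cAMP relative to vehicle, using cells expressing that subtype and either lysate cAMP measurement or a cAMP response element reporter.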

CRF1R = target: T2, CRF1R (Homo sapiens, UniProt P34998); assay: CRF1R agonist activation (EC50 / Emax), called comparative CRF binding; type: cell-based; settings: for Emax: read-out: CRF1R Emax; for EC50: CRF1R EC50
T2 sequence (P34998 24-415): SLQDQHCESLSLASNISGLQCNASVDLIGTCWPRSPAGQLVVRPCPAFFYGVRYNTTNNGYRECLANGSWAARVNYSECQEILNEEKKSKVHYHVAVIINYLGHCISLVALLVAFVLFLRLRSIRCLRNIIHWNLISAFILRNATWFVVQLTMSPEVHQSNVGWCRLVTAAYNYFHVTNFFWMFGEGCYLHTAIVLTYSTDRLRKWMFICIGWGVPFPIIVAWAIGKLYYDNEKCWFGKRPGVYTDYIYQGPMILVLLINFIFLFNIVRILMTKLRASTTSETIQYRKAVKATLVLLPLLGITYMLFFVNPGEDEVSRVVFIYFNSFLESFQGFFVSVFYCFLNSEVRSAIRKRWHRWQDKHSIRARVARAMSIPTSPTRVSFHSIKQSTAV
How it was run: as §1

CC[C@H](C)[C@H](NC(=O)[C@@H](NC(=O)[C@H](CC(=O)O)NC(=O)[C@H](CC(C)C)NC(=O)[C@H](CC(C)C)NC(=O)[C@H](CC(C)C)NC(=O)[C@H](CCCNC(=N)N)NC(=O)[C@H](CC(N)=O)NC(=O)[C@H](CC(N)=O)NC(=O)[C@H](C)NC(=O)[C@H](C)NC(=O)[C@H](CCC(N)=O)NC(=O)[C@H](CCC(N)=O)NC(=O)[C@H](CCCCN)NC(=O)[C@H](CCC(=O)O)NC(=O)[C@H](CCCCN)NC(=O)[C@H](CCC(=O)O)NC(=O)[C@H](CCC(N)=O)NC(=O)[C@H](CCCCN)NC(=O)[C@H](CCC(=O)O)NC(=O)[C@@H](NC(=O)[C@H](CCC(=O)O)NC(=O)[C@@H](NC(=O)[C@H](CCSC)NC(=O)[C@H](CCCCN)NC(=O)[C@H](CCCNC(=N)N)NC(=O)[C@H](CC(C)C)NC(=O)[C@H](CC(C)C)NC(=O)CNC(=O)[C@H](Cc1ccccc1)NC(=O)[C@@H]1CCCN1C(=O)[C@H](CC(C)C)NC(=O)[C@H](CC(=O)O)NC(=O)[C@@H](NC(=O)[C@H](CO)NC(=O)[C@@H](NC(=O)[C@@H]1CCCN1C(=O)[C@@H]1CCCN1C(=O)CNC(=O)[C@@H]1CCC(=O)N1)[C@@H](C)CC)[C@@H](C)CC)[C@@H](C)CC)[C@@H](C)CC)[C@@H](C)O)C(N)=O [compound 68]
Emax (CRF2R): 74% | Emax (CRF1R): 33%

CC[C@H](C)[C@H](NC(=O)[C@@H](NC(=O)[C@H](CC(=O)O)NC(=O)[C@H](CC(C)C)NC(=O)[C@H](CC(C)C)NC(=O)[C@H](CC(C)C)NC(=O)[C@H](CCCNC(=N)N)NC(=O)[C@H](CC(N)=O)NC(=O)[C@H](CC(N)=O)NC(=O)[C@H](C)NC(=O)[C@H](C)NC(=O)[C@H](CCC(N)=O)NC(=O)[C@H](CCC(N)=O)NC(=O)[C@H](CCCCN)NC(=O)[C@H](CCC(=O)O)NC(=O)[C@H](CCCCN)NC(=O)[C@H](CCC(=O)O)NC(=O)[C@H](CCC(N)=O)NC(=O)[C@H](CCCCN)NC(=O)[C@H](CCC(=O)O)NC(=O)[C@@H](NC(=O)[C@H](CCC(=O)O)NC(=O)[C@@H](NC(=O)[C@H](CCSC)NC(=O)[C@H](CCCCN)NC(=O)[C@H](CCCNC(=N)N)NC(=O)[C@H](CC(C)C)NC(=O)[C@H](CC(C)C)NC(=O)[C@@H](NC(=O)[C@@H](NC(=O)[C@@H]1CCCN1C(=O)[C@H](CC(C)C)NC(=O)[C@H](CC(=O)O)NC(=O)[C@@H](NC(=O)[C@H](CO)NC(=O)[C@@H](NC(=O)[C@@H]1CCCN1C(=O)[C@@H]1CCCN1C(=O)CNC(=O)[C@@H]1CCC(=O)N1)[C@@H](C)CC)[C@@H](C)CC)[C@@H](C)O)[C@@H](C)CC)[C@@H](C)CC)[C@@H](C)CC)[C@@H](C)O)C(N)=O [compound 50]
EC50 (CRF2R): 19 nM | Emax (CRF2R): 94% | EC50 (CRF1R): > 1000 nM | Emax (CRF1R): 42%

CC[C@H](C)[C@H](NC(=O)[C@@H](NC(=O)[C@H](CC(=O)O)NC(=O)[C@H](CC(C)C)NC(=O)[C@H](CC(C)C)NC(=O)[C@H](CC(C)C)NC(=O)[C@H](C)NC(=O)[C@H](CC(N)=O)NC(=O)[C@H](CC(N)=O)NC(=O)[C@H](C)NC(=O)[C@H](C)NC(=O)[C@H](CCC(N)=O)NC(=O)[C@H](CCC(N)=O)NC(=O)[C@H](CCCCN)NC(=O)[C@H](CCC(=O)O)NC(=O)[C@H](CCCCN)NC(=O)[C@H](CCC(=O)O)NC(=O)[C@H](CCC(N)=O)NC(=O)[C@H](CCCCN)NC(=O)[C@H](CCC(=O)O)NC(=O)[C@@H](NC(=O)[C@H](CCC(=O)O)NC(=O)[C@@H](NC(=O)[C@@H](NC(=O)[C@H](CCCCN)NC(=O)[C@H](CCCNC(=N)N)NC(=O)[C@H](CC(C)C)NC(=O)[C@H](CC(C)C)NC(=O)[C@H](CCC(N)=O)NC(=O)[C@H](Cc1ccccc1)NC(=O)[C@@H]1CCCN1C(=O)[C@H](CC(C)C)NC(=O)[C@H](CC(=O)O)NC(=O)[C@@H](NC(=O)[C@H](CO)NC(=O)[C@@H](NC(=O)[C@@H]1CCCN1C(=O)[C@@H]1CCCN1C(=O)CNC(=O)[C@@H]1CCC(=O)N1)[C@@H](C)CC)[C@@H](C)CC)C(C)C)[C@@H](C)CC)[C@@H](C)CC)[C@@H](C)O)C(N)=O [compound 350]
EC50 (CRF2R): 11.6 nM | Emax (CRF2R): 98.1% | EC50 (CRF1R): ≥ 1000 nM | Emax (CRF1R): 48%
